Tests used:
HSkM cells = test: In-Cell Western of myosin heavy chain (MyoHC) content in muscle cells exposed to CI-CM; type: cell-based, human; conditions: muscle cells with or without CI-CM, FIGS. 23, 24
Source text: FIG. 21 is a chart showing the quantification of myosin heavy chain (MyoHC) content determined by In-Cell Western analysis of in vitro HSkM cells treated with media conditioned by cachexia-inducing MkN1 and G361 cells and in vitro HSkM cells treated with media conditioned by non-cachexia-inducing 293 cells, either in the presence or absence of a MEK/ERK inhibitor PD184352 (PD184).
FIG. 22 is a chart showing the myosin heavy chain (MyoHC) content determined by In-Cell Western analysis of in vitro HSkM cells pre-treated (for 2 days) or not pre-treated with cachexia-inducing conditioned media (“CI-CM”), either in the presence or absence of an ERK1/2 inhibitor, SCH772984 (SCH2984).
FIGS. 23A and 23B are a series of charts showing the dose response of myosin heavy chain (MyoHC) content determined by In-Cell Western analysis of muscle cells treated with a RAGE Anti-Peptide (FIG. 23A) or an anti-RAGE mAb (FIG. 23B), either in the absence or presence of cachexia-inducing conditioned media (CI-CM).
FIG. 24 is a chart showing the dose response of myosin heavy chain (MyoHC) content determined by In-Cell Western analysis of muscle cells treated with a recombinant soluble RAGE, either in the presence of cachexia-inducing conditioned media (CI-CM) or non-cachexia-inducing conditioned media (NCI-CM). […]

pancreatic cancer cells = test: CellTiter Glo cell number assay, chemotherapy with or without soluble RAGE; type: cell-based; conditions: treated for 5 days; Gemcitibine alone or with increasing doses of recombinant human soluble RAGE
Source text: Anti-RAGE treatment increases sensitivity to chemotherapy in cancer cells.

rsRAGE: recombinant soluble RAGE that competes with membrane-bound RAGE for binding RAGE ligands
loss of MyoHC in response to CI-CM under RAGE blockade (HSkM cells): inhibit
pancreatic cancer cell numbers (CellTiter Glo) (pancreatic cancer cells): reduction

Reference: US11058903B2, “Methods for identifying and treating cachexia or pre-cachexia using an inhibitor of rage” (THE BROAD INSTITUTE, INC., priority 2013, dated 2021)
